Results reported in patent US12133841B2, “Heterocyclic compounds as kinase inhibitors, compositions comprising the heterocyclic compound, and methods of use thereof” (JS INNOMED HOLDINGS LTD., priority 2018, dated 2024).
pIC50: −log10 of the molar value.

Sequences of proteins named here, by UniProt entry; tags and fusion partners are left off.
UniProt P28482, whole entry: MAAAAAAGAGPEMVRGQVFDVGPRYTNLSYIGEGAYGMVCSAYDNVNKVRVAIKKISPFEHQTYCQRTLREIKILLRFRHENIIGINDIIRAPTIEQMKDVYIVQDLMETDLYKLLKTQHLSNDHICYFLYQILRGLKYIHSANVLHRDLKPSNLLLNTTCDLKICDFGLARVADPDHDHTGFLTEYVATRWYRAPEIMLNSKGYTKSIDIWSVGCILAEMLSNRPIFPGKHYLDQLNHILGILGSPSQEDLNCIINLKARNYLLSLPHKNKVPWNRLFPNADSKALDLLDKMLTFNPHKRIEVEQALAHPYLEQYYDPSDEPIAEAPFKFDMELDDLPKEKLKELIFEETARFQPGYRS

Key:
Colo205 cell line = assay: Colo205 cell proliferation assay (MTT assay, WST-8); conditions: read-out: Colo 205 Cell Activity (IC50 of growth inhibition in Colo 205 cells); 72 hours incubation
Experimental: Compounds disclosed herein were tested for the inhibition of ERK2 by a Colo205 cell proliferation assay commonly known as MTT assay. In this assay, a complete media was prepared by adding 10% fetal bovine serum to RPMI-1640 medium (Life technology). Colon cancer cells (Colo205 cell line) were added to each of 88 wells of a 96 well plate at a seeding density of 5,000 cells/well/90 μL. The cells were allowed to attach to the plate by incubating at 37° C. for 24 hours. The compound was dissolved in DMSO (SIGMA). A solution of test compound was prepared in complete media by serial dilution to obtain the following concentrations: 500 μM, 150 μM, 50 μM, 15 μM, 5 μM, 1.5 μM, 0.5 μM, 0.15 μM and 0.05 μM. The test compound solution (10 μL) was added to each of 80 cell-containing wells. The final concentrations of the compound were following: 50 μM, 15 μM, 5 μM, 1.5 μM, 0.5 μM, 0.15 μM, 0.05 μM, 0.015 μM and 0.005 μM. The final concentration of DMSO is 0.5%. To the 8 remaining cell-containing wells, only complete media (containing 0.5% DMSO) was added to form a control group in order to measure maximal proliferation. To the remaining 8 empty wells, complete media was added to for a vehicle control group in order to measure background. […] The plates were further incubated at 37° C. for 2 hours, and then read for the absorbance using a microplate reader at 450 nm. […]

human ERK2 = human ERK2 (Homo sapiens, UniProt P28482); assay: LanthaScreen TR-FRET ERK2 enzymatic assay; conditions: read-out: ERK2 Biochemical Activity (IC50 of ERK2 inhibition); 5 μM ATP, one hour reaction
Experimental: Compounds were tested in a LanthaScreen™ time-resolved fluorescence energy transfer (TR-FRET) enzymatic assay from Invitrogen. The assay used human ERK2 (Mitogen Activated Kinase 1, Invitrogen, Cat. PV3311) recombinantly expressed as GST-tagged full-length protein purified from E. coli and activated in vitro with MAP2K1. The substrate was a recombinant truncated version (residues 19-96) of ATF2 fused with Green Fluorescent Protein (Invitrogen, Cat. PV4445). Test compounds were prepared and diluted in DMSO in 3-fold serial dilutions to 100× of the final testing concentrations. The compounds were then further diluted to 4× by the kinase reaction buffer (Invitrogen, Cat. PV3189). […] After 30 minutes of incubation at room temperature, the plate was read in Tecan Infinite F200 Pro with the following settings: Excitation 340 nm (30)/Emission1 495 nm (10)/Emission2 520 nm (25). The TR-FRET values were dimensionless numbers that were calculated as the ratio of the acceptor ([…]) signal to the donor (Terbium) signal. Percent of control was calculated as the percentage of compound-treated vs 1% DMSO vehicle-treated. The dose-response curves were generated and the IC50s were calculated by nonlinear sigmoid curve fitting using GraphPad Prism. […]

- pIC50 (Colo205 cell line): > 6.30
- pIC50 (human ERK2): > 8.00
SMILES: CC(c1ccnc(C(F)(F)F)c1)N1C(=O)c2cc(-c3ccnc(Nc4ccnn4C)n3)sc2C1(C)C (racemic) [Example 9, 6,6-dimethyl-2-(2-(1-methyl-1H-pyrazol-5-ylamino)pyrimidin-4-yl)-5-(1-(2-(trifluoromethyl)pyridin-4-yl)ethyl)-5,6-dihydro-4H-thieno[2,3-c]pyrrol-4-one]
